Antibody variant affinities, Ab-14 light chain, assay B

All variants were tested on one target, the spike HR2 peptide PDVDLGDISGINAS (SARS-CoV-2).

The variants keep the heavy chain, the linker and the frameworks of Ab-14 (scFv order VH, three GGGGS repeats, VL).
VH: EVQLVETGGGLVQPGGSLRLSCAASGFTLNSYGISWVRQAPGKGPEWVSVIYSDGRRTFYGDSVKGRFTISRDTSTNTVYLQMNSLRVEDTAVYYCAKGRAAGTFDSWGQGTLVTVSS
VL: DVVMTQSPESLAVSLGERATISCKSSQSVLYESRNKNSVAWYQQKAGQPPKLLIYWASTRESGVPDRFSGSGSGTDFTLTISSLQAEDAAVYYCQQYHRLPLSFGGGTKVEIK

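The parent was found by panning a naive human phage display library on the peptide. Designed CDR sequences, proposed from the first random library and measured here. Several design methods are mixed in this list. The scFvs were displayed on barcoded MATa yeast, the peptide on MATalpha yeast. Pairs that bind mate more often; barcode pairs of the diploids are counted by sequencing. A regression on co-assayed BCL2-family reference pairs converts the normalised counts of each replicate to an apparent Kd. There are six technical replicates.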

Each variant is given by its three light chain CDRs, as the data file delimits them; those of the parent are KSSQSVLYESRNKNSVA, WASTRES, QQYHRLPLS. This list holds designs with at most six substitutions. The read-out is the apparent dissociation constant on a log10 scale (nM): the lower, the stronger. The mean shown is taken over the replicates in which the pair was detected. "nd" marks a missing value. The strain was present, yet no cells mated with the target were sequenced in any replicate, which points to weak or no binding. Three control strains display no target. For all light chain designs, 4% of the pairings with them gave a signal, with a median of 2.64 and one signal in twenty below 1.59, so weak values seen in few replicates may be background.

| CDR-L1 | CDR-L2 | CDR-L3 | log10 Kd (nM), mean | replicates with signal |
|---|---|---|---|---|
| KLSQSVLYESRNKNSVA | KASTKER | QQYARLPLS | 0.59 | 6/6 |
| KLQQSMEYESRNKNSVA | NASTRES | QQYHRLPLS | -0.06 | 6/6 |
| KSSMSWLYEDRVKNSVA | GASTRES | QQYHRLPLS | 0.10 | 6/6 |
| KSSQSVLYESNNKNSVA | WASTRED | QQYHRLPLS | 0.82 | 6/6 |
| KSQQSVLYESRNKNSVA | HASTRED | QQYARLPLS | 0.20 | 6/6 |
| KSSQGQLYENRNKNSVA | SASQRES | QQYHRLPLS | -0.25 | 6/6 |
| KIYQSGLYESRNKNSVA | SASTRES | QQYFRLPLS | 1.95 | 5/6 |
| KSSQSVFYESRNKPSVA | SASLRES | QQYHRLPLG | 1.67 | 2/6 |
| KSLQSVLYESRNKNSVA | WASTRWS | QQYRELPLS | nd | 0/6 |
| KSSQSVLMEERNKNSVA | WASTRES | QQYHRLPLS | 1.91 | 6/6 |
| KSSQSVLYESDNKQSVA | NASTRES | QQYHRLPLS | 0.26 | 6/6 |
| RSSQSVEYESRNKNSVA | SAYTREP | QQYHRLPLS | 0.76 | 6/6 |
| KVSQSHLYESRNKNSVA | NASTREQ | QQYHRLPLS | -0.17 | 6/6 |
| KSSESDLYESRNKNSVA | EASTREQ | QQYHRLPLS | 0.14 | 6/6 |
| KSSQSVDYESRNRNSVA | NASTRES | QQYHRLPLS | nd | 0/6 |
| KSSQSCLYESRNKNSVA | WASTRES | QQYHRLGLS | nd | 0/6 |
| KLSQSVLYESRNKNSVA | QASTRCS | QQYHRLPLS | -0.08 | 6/6 |
| KLSQSVLYESRNKNSVA | NASQRER | QQYHRLPLS | -1.02 | 6/6 |
| KLSQSVLYESRNKNSVA | EADTRES | QQYHRLPLS | 0.06 | 6/6 |
| KSSQSVLYPSRNKNSVA | HASTRES | QQYHRLPLS | 1.49 | 6/6 |
| KISQSVLYESRNKNSVA | WADTRES | QQYTRLPLS | 1.14 | 6/6 |
| KQSQSVLFESRNKNSVA | EASTRES | QQYHRLPLS | 0.18 | 6/6 |
| KLPQSVLYESRNKNAVA | DASTRES | QQYHRLPLS | -0.15 | 6/6 |
| MSSQSVLYESRNMNSVA | WASTRES | QQYNRLPLS | 1.07 | 1/6 |
| KSSQSVLYEERNENSVA | WASTRES | QAYHRLPLS | 2.34 | 2/6 |
| KISQSVLYEDRNKNSVA | EASTRES | DQYHRHPLS | 0.17 | 6/6 |
| KLSQSVEYESRDKNSVA | DAQTRLS | QQYHRLPLS | -0.18 | 6/6 |
| KSSQSVLYESRNKNSVA | KASERES | QQYHRLPLS | 0.52 | 6/6 |
| KSSQSVLYESRNKNSVA | TADTRES | QQYHRLPLS | 2.12 | 1/6 |
| KLSQEVLYESRNKNSVA | EASTRES | QQYHRLPLS | -0.32 | 6/6 |
| KSSQSVLYEFRNKNSVA | AASTRES | QQYHRLPLS | 0.81 | 6/6 |
| KSSQSVLYESRNKNSVA | EASTRES | QQKMRLPLS | 0.87 | 6/6 |
| KLPQSVGYESRNKNSVA | NASQRES | QQYHRLPLS | 0.33 | 6/6 |
| KLSQSQLYESRNKNSVA | NASTREV | QQYHRLPLS | -0.12 | 6/6 |
| KLSQSDNYESRNKNSVA | HASCRCS | QQYHRLPLS | 0.76 | 6/6 |
| KLQQSQEYESRNKNSVA | HASTRES | QQYHRLPLS | 1.25 | 6/6 |
| KSSQSVLYESGNGNSVA | WPSTRES | QQYHRLPLS | nd | 0/6 |
| KSSQNVLYESRNKNAVA | WGSTRES | QQYMRLPLS | 1.29 | 5/6 |
| KLSQSELYESRNKNSVA | SASTRYS | QQYHRLPLS | -0.10 | 6/6 |
| KMSQSALMESRNWNSVA | NASKRES | QQYHRLPLS | 0.17 | 6/6 |
| KSSHSQLYESRNKPSVA | KASTRES | QQYHRLPIS | 1.48 | 1/6 |
| KSSHSVLFESRNKNSVA | DASTRES | QQYHRLPLS | 0.18 | 6/6 |
| KSSQSVLYESWTKNSVA | DASTRES | QQYHRLPLS | 0.86 | 6/6 |
| KHSQSWLYESRNKNSVA | GASTRES | QQYHRLPLS | 0.02 | 6/6 |
| KSSISYLYESTNTNSVA | EASTRES | QQYHRLPLS | 0.30 | 6/6 |
| LSSISYLYESMNKNSVA | EASTRES | QQYHRLPLS | 0.83 | 6/6 |
| KLKQSWLYESRNKNSVA | NASTRMS | QQYHRLPLS | -0.10 | 6/6 |
| KSSISFLYESRNKNSVA | AASTRES | QQYHRLPLS | 0.19 | 6/6 |
| KVSQSVLYESRVKNSVA | DASTRCS | QQYHRLPLE | -0.31 | 6/6 |
| KLSQSMLYESRNKNSVA | DASTRCS | QQYHRLPLS | -0.34 | 6/6 |
| KLSQSVLYEERNSNSVA | NASTRMS | QQYHRLPLS | -0.25 | 6/6 |
| KLEQSPNYESRNKNSVA | NASTRES | QQYHRLPLS | -0.17 | 6/6 |
| KQSQEVDFESRNKNSVA | DASTRES | QQYHRLPLS | 1.12 | 6/6 |
| KQSQSVLFESRNKNSVA | MASTRES | QQYHRLPLS | 0.99 | 6/6 |
| KSGQGALYESRNKNSVA | GASTRES | QQYHRLPLS | 0.00 | 6/6 |
| KSSGSVLYESRNSNSVA | NASTREL | QDYHRLPLS | 0.04 | 6/6 |
| KSSQSVTPESNNKNSVA | WASTRES | QQYHRLPLS | 2.89 | 3/6 |
| KESQSWMYESRNKNSVA | GASTRES | QQYHRLPLS | 0.77 | 6/6 |
| KSSQSVLYESTNKNSVA | EASTRES | QQYHRLPLS | 0.64 | 6/6 |
| KVSQSWLYESRNKNAVA | NASQRES | QQYHRLPLS | -0.22 | 6/6 |
| KMSQSVLFEWRNKNSVA | DASTRES | QQYHRLPLS | -0.14 | 6/6 |
| KSSQSVRYESRNTNSVA | WASTRES | QQPHRLPLS | 2.00 | 1/6 |
| KLSGSQLYESRNKNSVA | NASTRES | QQYHRLPLS | 0.01 | 6/6 |
| ASSQSVLAESCNKNSVA | QASTRES | QQYHRLPLS | 0.75 | 6/6 |
| KSSLSVLPESRNKNSVA | WASTRES | QQYVRLPLS | 1.22 | 6/6 |
| KLSQSDLYDSRNKNSVA | NASTRES | QQYHRLPLS | -0.20 | 6/6 |
| KLQMSELYESRNKNSVA | NASTRES | QQYHRLPLS | -0.16 | 6/6 |
| RQSQSVLVESSNKSSVA | SASTRES | QQYHRLPLS | 1.27 | 6/6 |
| KSSQSVLYMSCNKNSVA | WASTRES | QQYGRLPLS | 3.24 | 1/6 |
| KQSQSVLVESRNKNSVA | MASTRES | QQYHRLPLS | 1.69 | 6/6 |
| HLSQSELYESRNKNSVA | NASTRMS | QQYHRLPLS | -0.27 | 6/6 |
| KQSQSVPYESVNKNSVA | DASTRES | QQYHRLPLS | -0.15 | 6/6 |
| KLSQSVLYEQRNKNSVA | QASTRMS | QQYHRLPLS | 0.11 | 6/6 |
| KMEQGVLYESRNKGSVA | DASVRES | QQYHRLPLS | -0.33 | 6/6 |
| KISQSVLYARRNKNSVA | EASTRLS | QQYHNLPLS | 1.60 | 5/6 |

The parent sequence was in this pool as ten entries: three were never detected, three once, and four in most replicates, with averages from 0.34 to 2.37. A sequence measured in both rounds can read differently, since the two assays cover different ranges. In the paper, a design with two or fewer of six values counts as a poor binder.

Source: Li et al. 2023 (doi:10.1038/s41467-023-39022-2), MIT Lincoln Laboratory and A-Alpha Bio; data file from the FLAb repository.